Laboratory results as given in US20110105554A1, “MEANS FOR TREATING MYOSIN-RELATED DISEASES” (KINARIS BIOMEDICALS GMBH, priority 2007, published 2011).

Chains of the proteins cited; added tags and fusions are not shown.
UniProt P08799, whole entry S249N/C312Y: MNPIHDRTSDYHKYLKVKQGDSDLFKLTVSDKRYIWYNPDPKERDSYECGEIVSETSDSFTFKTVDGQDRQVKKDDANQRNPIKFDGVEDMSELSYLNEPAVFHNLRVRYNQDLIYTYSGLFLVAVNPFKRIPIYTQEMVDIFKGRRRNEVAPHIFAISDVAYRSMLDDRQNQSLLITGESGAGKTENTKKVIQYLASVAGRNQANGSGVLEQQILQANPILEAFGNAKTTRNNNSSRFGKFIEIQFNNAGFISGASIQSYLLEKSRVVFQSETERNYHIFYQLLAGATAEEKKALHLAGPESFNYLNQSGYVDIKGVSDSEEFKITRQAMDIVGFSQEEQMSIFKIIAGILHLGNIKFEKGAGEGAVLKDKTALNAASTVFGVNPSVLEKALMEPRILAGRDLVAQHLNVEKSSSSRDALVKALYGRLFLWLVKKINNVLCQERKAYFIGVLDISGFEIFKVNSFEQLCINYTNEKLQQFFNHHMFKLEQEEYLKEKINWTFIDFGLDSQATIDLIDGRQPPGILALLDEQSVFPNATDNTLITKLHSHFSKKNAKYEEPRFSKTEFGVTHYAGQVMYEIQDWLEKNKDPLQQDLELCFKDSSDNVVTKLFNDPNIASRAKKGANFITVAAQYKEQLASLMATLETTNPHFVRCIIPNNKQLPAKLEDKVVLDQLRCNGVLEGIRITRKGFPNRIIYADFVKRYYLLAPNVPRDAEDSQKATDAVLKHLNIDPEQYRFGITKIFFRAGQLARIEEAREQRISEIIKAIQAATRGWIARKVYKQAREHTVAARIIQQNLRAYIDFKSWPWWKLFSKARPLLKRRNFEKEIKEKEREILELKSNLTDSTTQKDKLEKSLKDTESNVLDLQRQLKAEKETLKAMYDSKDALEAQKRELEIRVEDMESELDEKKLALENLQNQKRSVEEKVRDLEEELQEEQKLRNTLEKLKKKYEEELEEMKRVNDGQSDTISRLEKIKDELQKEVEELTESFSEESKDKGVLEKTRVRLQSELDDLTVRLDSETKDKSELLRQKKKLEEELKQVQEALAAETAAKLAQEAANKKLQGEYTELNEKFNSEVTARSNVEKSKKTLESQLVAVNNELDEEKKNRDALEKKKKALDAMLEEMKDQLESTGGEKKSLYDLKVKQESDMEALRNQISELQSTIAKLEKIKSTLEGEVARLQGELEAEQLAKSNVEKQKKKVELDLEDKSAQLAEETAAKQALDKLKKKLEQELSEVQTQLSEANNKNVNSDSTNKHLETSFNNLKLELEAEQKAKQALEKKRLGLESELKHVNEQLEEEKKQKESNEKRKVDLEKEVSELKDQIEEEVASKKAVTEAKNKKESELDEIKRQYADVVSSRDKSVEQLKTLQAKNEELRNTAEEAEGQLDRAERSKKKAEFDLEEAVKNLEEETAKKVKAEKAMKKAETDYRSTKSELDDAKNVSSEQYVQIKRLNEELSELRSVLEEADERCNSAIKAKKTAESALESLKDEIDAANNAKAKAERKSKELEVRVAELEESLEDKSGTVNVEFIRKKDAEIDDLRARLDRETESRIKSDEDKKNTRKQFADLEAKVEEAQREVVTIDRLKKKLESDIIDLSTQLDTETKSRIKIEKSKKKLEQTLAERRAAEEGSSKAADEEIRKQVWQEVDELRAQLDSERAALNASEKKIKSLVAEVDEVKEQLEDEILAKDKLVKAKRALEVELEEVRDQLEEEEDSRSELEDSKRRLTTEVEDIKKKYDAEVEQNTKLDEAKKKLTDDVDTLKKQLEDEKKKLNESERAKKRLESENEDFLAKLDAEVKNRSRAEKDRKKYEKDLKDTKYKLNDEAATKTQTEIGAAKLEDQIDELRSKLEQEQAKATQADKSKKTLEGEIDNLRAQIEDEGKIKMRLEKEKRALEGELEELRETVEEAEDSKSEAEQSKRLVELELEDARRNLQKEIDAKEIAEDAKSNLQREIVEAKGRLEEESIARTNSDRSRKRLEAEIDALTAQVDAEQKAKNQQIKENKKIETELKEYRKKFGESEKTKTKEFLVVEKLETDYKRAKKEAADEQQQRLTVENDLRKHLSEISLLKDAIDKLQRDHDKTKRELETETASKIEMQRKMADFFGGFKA

Key:
[1] = biological target: myosin-2 (Dictyostelium discoideum, UniProt P08799, C312Y/S249N); assay: Basal ATPase activity of myosin-2 (FIG. 19c); assay type: biochemical
Method: (c) KIN-77 inhibits the basal ATPase activity of myosin-2 approximately 3-fold with IC50=5.3 μM.
Steady-state kinetics. Basal and actin-activated Mg^2+-ATPase activities were measured with the NADH-coupled assay^19 in a buffer containing 25 mM HEPES, 25 mM KCl, and 4 mM MgCl2, 0.5 mM DTT at pH 7.0 in the presence of 1 mM ATP at 25° C. PBP was added to the reaction mixture in the absence of nucleotide and incubated for 20 minutes before the reaction was started by the addition of ATP. NADH oxidation was followed using the change in absorption at 340 nm in a Beckman DU-800 spectrophotometer.

[2] = test system: rabbit myosin-2

## Oc1c(Br)cc(Br)cc1-c1[nH]c2cc(Br)c(Br)cc2c1Br
[1]
  fold inhibition of basal ATPase activity: approximately 3 fold
[1]; read-out: IC50, basal ATPase activity
  IC50: 5.3 µM
[2]
  AC50: 19.2 µM
  IC50: 95.6 µM
